The text below walks through data of ChEMBL document CHEMBL3585263, “Novel Octahydropyrrolo[3,4-c]pyrroles Are Selective Orexin-2 Antagonists: SAR Leading to a Clinical Candidate” (J Med Chem, 2015).

Sequences of proteins named here, by UniProt entry; tags and fusion partners are left off.
UniProt O43613, whole entry: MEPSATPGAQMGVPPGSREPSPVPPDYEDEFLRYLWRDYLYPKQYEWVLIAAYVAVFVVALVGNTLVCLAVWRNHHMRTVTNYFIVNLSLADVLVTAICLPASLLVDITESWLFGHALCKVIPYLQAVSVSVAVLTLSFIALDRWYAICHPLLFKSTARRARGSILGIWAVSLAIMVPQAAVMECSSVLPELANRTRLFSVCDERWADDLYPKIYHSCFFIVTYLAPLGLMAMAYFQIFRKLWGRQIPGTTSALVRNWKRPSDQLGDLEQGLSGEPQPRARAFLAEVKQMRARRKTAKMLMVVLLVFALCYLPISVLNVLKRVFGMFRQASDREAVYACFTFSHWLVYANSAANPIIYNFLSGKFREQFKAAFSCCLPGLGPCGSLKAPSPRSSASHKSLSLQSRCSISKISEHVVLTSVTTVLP
UniProt O43614, whole entry: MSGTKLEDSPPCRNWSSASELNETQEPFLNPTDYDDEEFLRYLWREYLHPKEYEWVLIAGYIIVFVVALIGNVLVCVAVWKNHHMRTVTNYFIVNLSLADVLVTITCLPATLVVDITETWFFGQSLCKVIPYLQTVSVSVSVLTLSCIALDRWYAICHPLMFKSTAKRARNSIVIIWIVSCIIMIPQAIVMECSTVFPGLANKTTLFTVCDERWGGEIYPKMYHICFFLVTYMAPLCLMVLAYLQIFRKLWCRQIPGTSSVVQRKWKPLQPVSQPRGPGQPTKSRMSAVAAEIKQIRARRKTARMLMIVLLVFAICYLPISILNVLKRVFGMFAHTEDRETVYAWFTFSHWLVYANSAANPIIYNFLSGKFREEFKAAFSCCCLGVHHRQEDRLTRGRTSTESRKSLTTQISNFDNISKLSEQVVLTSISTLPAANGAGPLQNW

pKi: −log10 of the molar value.

Experiment [1] addresses Orexin/Hypocretin receptor type 1 (Homo sapiens, UniProt O43613).
Experiment [2] has as its target Orexin receptor type 2 (Homo sapiens, UniProt O43614).

As to `Cc1cc(C)nc(N2C[C@H]3CN(C(=O)c4c(F)cccc4-n4nccn4)C[C@H]3C2)n1` [SELTOREXANT], the pKi (commonly the negative decadic logarithm of the Ki, by convention in mol/L) in experiment [1] is 6.10.

With `Cc1cc(C)nc(N2C[C@H]3CN(C(=O)c4c(C)cccc4-n4nccn4)C[C@H]3C2)n1`, the pKi in experiment [2] is 8.10.
